Read-outs that look alike come from different tables or passages of the source.
Assay: in vivo
Settings: mouse, acute

For `CN(C/C=C/c1ccccc1)Cc1cccc2ccccc12`, the LD50 (ip, i.p., read-out: LD50 i.p.) was roughly 560 mg/kg and the LD50 (po, p.o., read-out: LD50 p.o.) was greater than 1000 mg/kg.

Reference: patent US5935998A, “Use of all allylamine derivatives such as terbinafine, in the manufacture of a medicament for the treatment of helicobacter pylori infection or associated diseases” (Novartis AG, priority 1995, dated 1999)
